Target: T1, complement component C5 (UniProt P01031 19-1676, limits assumed)
T1 construct: Mature C5 is a disulfide-linked alpha/beta heterodimer made from one precursor; also called complement factor 5 (C5) protein
Experiment: in vitro complex size study; Pozelimab added to pre-formed Eculizumab*:C5 complexes, Pozelimab in excess (5:1:1 pozelimab:eculizumab*:C5)

B1: Pozelimab (antibody, V domains shown)
VH: QVQLQESGPGLVKPSETLSLTCTVSGDSVSSSYWTWIRQPPGKGLEWIGYIYYSGSSNYNPSLKSRATISVDTSKNQFSLKLSSVTAADTAVYYCAREGNVDTTMIFDYWGQGTLVTVSS
VL: AIQMTQSPSSLSASVGDRVTITCRASQGIRNDLGWYQQKPGKAPKLLIYAASSLQSGVPSRFAGRGSGTDFTLTISSLQPEDFATYYCLQDFNYPWTFGQGTKVEIKR
With B1 the “percent of complexes that were trimeric or pentameric (2:1 or 3:2 mAb:C5 molar ratios)” value was about 86%.
